The entries are a selection whose mix differs from that of the whole data set. Some salts and complexes are drawn in separate pieces, as the source files them; their charges need not balance. Active and inactive are the calls of the source.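 The calls were made as follows: active = GFP response versus DMSO above a set limit, roughly screen mean plus 3 SD (cut at about 180% in these data); inconclusive = fewer than 70 cells counted for a yeast strain; inactive = the rest.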
Assay: TOR pathway GLN3 branch reporter MEP2-GFP changes – S. cerevisiae, multiplex flow cytometry, MLPCN library, primary screen (AID 2016);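 also: median GFP fluorescence of the barcode-gated MEP2-GFP cells per well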
Conditions: S. cerevisiae MEP2-GFP strain, 3 h, at 10 µM, hits give high values, 100% = DMSO control level

Row | SMILES | GFP response vs DMSO
1 | Cc1cc(C)cc(OP(C)(=O)Nc2cccc(C(F)(F)F)c2)c1 (centres undefined) | inactive: 103%
2 | COc1ccc(OP(C)(=O)Nc2ccccc2Br)cc1 (centres undefined) | inactive: 95.7%
3 | COc1ccccc1OP(C)(=O)Nc1ccc(C)c(C)c1 (centres undefined) | inactive: 95.8%
4 | Cc1nc2ccc3ccccc3c2o1.O=[N+]([O-])c1cc([N+](=O)[O-])c(O)c([N+](=O)[O-])c1 | inactive: 104%
5 | CP(=O)(OCCOc1ccccc1)OCCOc1ccccc1 | inactive: 98%
6 | CP(=O)(Nc1ccc(Cl)cc1Cl)Oc1ccccc1 (centres undefined) | inactive: 93.2%
7 | COc1ccccc1OP(C)(=O)Nc1ccc(Br)cc1 (centres undefined) | inactive: 100%
8 | CN(C)CCOC(=O)C(O)(c1ccccc1)C1CCCC1 (centres undefined) | inactive: 108%
9 | COc1ccc(OP(C)(=O)Nc2ccccn2)cc1 (centres undefined) | inactive: 107%
10 | O=[N+]([O-])c1cc([N+](=O)[O-])c(Nc2ccccn2)c([N+](=O)[O-])c1 | inactive: 104%
11 | Cc1c(NP(C)(=O)Oc2ccc(C(C)C)cc2)c(=O)n(-c2ccccc2)n1C (centres undefined) | inactive: 103%
12 | CCc1ccc(OP(C)(=O)O)cc1 | inactive: 117%
13 | COc1ccccc1OP(C)(=O)Nc1ccc(C)cc1C (centres undefined) | inactive: 100%
14 | CP(=O)(Nc1ccccn1)Oc1ccccc1 (centres undefined) | inactive: 106%
15 | COc1ccc(OP(C)(=O)Nc2ccc(Br)cc2)cc1 (centres undefined) | inactive: 81.7%
16 | CCN(CC)CC(O)COC(=O)C(O)(c1ccccc1)C1CCCCC1 (centres undefined) | inactive: 97.9%
17 | CCc1ccc(OP(C)(=O)Nc2cccnc2)cc1 (centres undefined) | inactive: 106%
18 | CP(=O)(Oc1ccccc1)N1CCOC1=O (centres undefined) | inactive: 99.8%
19 | O=C(OCCCN1CCCC1)C(O)(c1ccccc1)C1CCCCC1 (centres undefined) | inactive: 102%
20 | COc1ccccc1OP(C)(=O)Nc1c(C)n(C)n(-c2ccccc2)c1=O (centres undefined) | inactive: 80.4%
21 | CP(=O)(Nc1ccc(Cl)cc1)Oc1ccc(F)cc1 (centres undefined) | inactive: 91.7%
22 | CC(C)(C)c1ccc(OP(C)(=O)O)cc1 | inactive: 104%
23 | COc1ccccc1OP(C)(=O)Nc1ccccc1Br (centres undefined) | inactive: 110%

Row | SMILES | GFP response vs DMSO
24 | CN(C)C(=O)c1c([N+](=O)[O-])cc([N+](=O)[O-])cc1[N+](=O)[O-] | inactive: 94.6%
25 | Nc1ccc2c(ccc3cccnc32)n1.O=[N+]([O-])c1cc([N+](=O)[O-])c(O)c([N+](=O)[O-])c1 | inactive: 101%
26 | CP(=O)(OC12CC3CC(CC(C3)C1)C2)OC12CC3CC(CC(C3)C1)C2 | inactive: 99.6%
27 | CCOC(=O)c1ccc(NP(C)(=O)Oc2ccc(Cl)cc2)cc1 (centres undefined) | inactive: 104%
28 | COc1ccc(OP(C)(=O)Nc2cccc(Br)c2)cc1 (centres undefined) | inactive: 110%
29 | COc1ccc(NP(C)(=O)Oc2ccccc2OC)cc1 (centres undefined) | inactive: 97.7%
30 | CN(C)CCOC(=O)C(O)(c1ccccc1)C1CCCCC1 (centres undefined) | inactive: 104%
31 | O=[N+]([O-])c1cc([N+](=O)[O-])c(NCC2CCS(=O)(=O)C2)c([N+](=O)[O-])c1 (centres undefined) | inactive: 111%
32 | O=[N+]([O-])c1ccc(OP2(=O)COCCO2)cc1 (centres undefined) | inactive: 102%
33 | CP(=O)(Nc1ccc(SC(F)(F)F)cc1)Oc1ccc(F)cc1 (centres undefined) | inactive: 104%
34 | CCOP(C)(=S)SCC(=O)NC(C)(CC)C(=O)O (centres undefined) | inactive: 103%
35 | CP(=O)(Nc1ccc2c(c1)OCCO2)Oc1ccccc1 (centres undefined) | inactive: 93.2%
36 | Cc1ccccc1NP(C)(=O)Nc1ccccc1C | inactive: 99%
37 | CC(C)c1ccc(OP(C)(=O)Nc2ccc(SC(F)(F)F)cc2)cc1 (centres undefined) | inactive: 108%
38 | CP(=O)(Nc1ccccc1F)Oc1ccccc1 (centres undefined) | inactive: 94.2%
39 | O=C(OCCN1CCN(CCOCc2ccccc2)CC1)C(O)(c1ccccc1)c1ccccc1 | inactive: 98.5%
40 | O=C(OC1CN2CCC1CC2)c1ccc([N+](=O)[O-])cc1 (centres undefined) | inactive: 98.1%
41 | COc1ccc2c(c1O)-c1c(O)c(OC)cc3c1[C@H](C2)[N+](C)(C)CC3.O=[N+]([O-])c1cc([N+](=O)[O-])c([O-])c([N+](=O)[O-])c1[O-] | inactive: 96.1%
42 | COc1ccc(OP(C)(=O)Nc2ccc(SC(F)(F)F)cc2)cc1 (centres undefined) | inactive: 94.2%
43 | CCOC(=O)c1ccc(NP(C)(=O)Oc2ccc(F)cc2)cc1 (centres undefined) | inactive: 106%
44 | CCN(CC)CCCOC(=O)C(O)(c1ccccc1)C1CCCCC1 (centres undefined) | inactive: 109%
45 | O=[N+]([O-])c1cc([N+](=O)[O-])c(OC2CCCCC2O)c([N+](=O)[O-])c1 (centres undefined) | inactive: 101%
46 | CCCCCOc1ccc(NP(C)(=O)Oc2ccc(Cl)cc2Cl)cc1 (centres undefined) | inactive: 103%

Row | SMILES | GFP response vs DMSO
47 | CP(=O)(Nc1ccccc1)Oc1ccc(F)cc1 (centres undefined) | inactive: 103%
48 | O=C(O)c1cccc(Nc2c([N+](=O)[O-])cc([N+](=O)[O-])cc2[N+](=O)[O-])c1 | inactive: 104%
49 | CC1=NCCc2c1[nH]c1ccccc21.O=[N+]([O-])c1cc([N+](=O)[O-])c(O)c([N+](=O)[O-])c1 | inactive: 109%
50 | COc1ccccc1OP(C)(=O)Nc1cccc(Br)c1 (centres undefined) | inactive: 101%
51 | Cc1cc(C)cc(OP(C)(=O)Nc2ccc(C)cc2C)c1 (centres undefined) | inactive: 102%
52 | CCOC(=O)c1ccc(NP(C)(=O)Oc2cc(C)cc(C)c2)cc1 (centres undefined) | inactive: 112%
53 | CP(=O)(Nc1cccc(Br)c1)Oc1ccccc1 (centres undefined) | inactive: 103%
54 | Cc1cc(C)cc(OP(C)(=O)Nc2ccccn2)c1 (centres undefined) | inactive: 96.7%
55 | Cc1ccc(C)c(NP(C)(=O)Oc2ccccc2)c1 (centres undefined) | inactive: 102%
56 | O=[N+]([O-])c1cc([N+](=O)[O-])c(-n2nnc3ccccc32)c([N+](=O)[O-])c1 | inactive: 93.6%
57 | O=[N+]([O-])c1cc([N+](=O)[O-])c(-c2cnn(-c3ccccc3)c2)c([N+](=O)[O-])c1 | inactive: 88%
58 | Cc1nc2ccc3ccccc3c2s1.O=[N+]([O-])c1cc([N+](=O)[O-])c(O)c([N+](=O)[O-])c1 | inactive: 97.1%
59 | CCOC(=O)C(CC)C1=NC(C)(C)Cc2ccccc21.O=[N+]([O-])c1cc([N+](=O)[O-])c(O)c([N+](=O)[O-])c1 (centres undefined) | inactive: 98.8%
60 | O=[N+]([O-])c1cc([N+](=O)[O-])c(Nc2nnnn2CCO)c([N+](=O)[O-])c1 | inactive: 98.4%
61 | CC1=C2N=C(C=C3N=C(C(C)=C4[N-][C@@](C)([C@@H]5N=C1[C@](C)(CCC(=O)NC[C@@H](C)OP(=O)([O-])O[C@H]1[C@@H](O)[C@@H](n6cnc7cc(C)c(C)cc76)O[C@@H]1CO)[C@H]5CC(N)=O)[C@@](C)(CC(N)=O)[C@@H]4CCC(N)=O)[C@@](C)(CC(N)=O)[C@@H]3CCC(N)=O)C(C)(C)[C@@H]2CCC(N)=O.[C-]#N.[Co+3] | inactive: 88%
62 | CN1CCCCC1COC(=O)C1(O)c2ccccc2CCc2ccccc21 (centres undefined) | inactive: 92.9%
63 | COc1ccccc1OP(C)(=O)Nc1c(C)cccc1C (centres undefined) | inactive: 99.5%
64 | CP(=O)(Nc1ccc(SC(F)(F)F)cc1)Oc1ccccc1 (centres undefined) | inactive: 107%
65 | CCCOc1ccc(NP(C)(=O)Oc2ccc(Cl)cc2)cc1 (centres undefined) | inactive: 101%
66 | CP(=S)(Nn1cnnc1)Oc1ccccc1 (centres undefined) | inactive: 103%
67 | COc1ccccc1OP(C)(=O)Nc1ccccc1 (centres undefined) | inactive: 95.6%
68 | CP(=O)(Nc1ccccc1Br)Oc1ccccc1 (centres undefined) | inactive: 103%
69 | CP(=O)(Oc1ccccc1)OC(c1ccccc1)C(F)(F)F (centres undefined) | inactive: 99.2%

Row | SMILES | GFP response vs DMSO
70 | CP(=O)(Nc1ccc(SC(F)(F)F)cc1)Oc1ccc(Cl)cc1 (centres undefined) | inactive: 103%
71 | Cc1cccc(C)c1OP(C)(=O)Nc1ccc(SC(F)(F)F)cc1 (centres undefined) | inactive: 97.6%
72 | Cc1cc(C)cc(OP(C)(=O)Nc2ccc(SC(F)(F)F)cc2)c1 (centres undefined) | inactive: 111%
73 | CCc1ccc(OP(C)(=O)N2CCN(c3ccc([N+](=O)[O-])cc3)CC2)cc1 (centres undefined) | inactive: 89.5%
74 | CP(=O)(NC(=O)Nc1ccccc1)Oc1ccccc1 (centres undefined) | inactive: 101%
75 | CCOP(C)(=S)SCC(=O)NC(C)C(=O)O (centres undefined) | inactive: 104%
76 | O=[N+]([O-])c1cc([N+](=O)[O-])c(O)c([N+](=O)[O-])c1.c1ccc(Oc2ccncc2)cc1 | inactive: 102%
77 | CCOC(=O)c1ccc(NP(C)(=O)Oc2ccc(OC)cc2)cc1 (centres undefined) | inactive: 93.9%
78 | CP(=O)(Nc1ccccn1)Oc1ccc(Cl)cc1 (centres undefined) | inactive: 92.6%
79 | CCN(CC)CCCOC(=O)C(O)(c1ccccc1)c1ccccc1 | inactive: 101%
80 | O=[N+]([O-])c1cc([N+](=O)[O-])c(Nc2cccnc2)c([N+](=O)[O-])c1 | inactive: 88.8%
81 | Cc1cccc(C)c1OP(C)(N)=O (centres undefined) | inactive: 100%
82 | CC(C)(C)c1ccc(OP(C)(=O)Nc2ccc(SC(F)(F)F)cc2)cc1 (centres undefined) | inactive: 101%
83 | O=[N+]([O-])c1ccc2c(c1)C=Nc1ccccc1O2 | inactive: 107%
84 | CCOC(=O)c1ccc(NP(C)(=O)Oc2ccccc2)cc1 (centres undefined) | inactive: 105%
85 | Cc1ccc(NP(C)(=O)Oc2ccccc2)c(C)c1 (centres undefined) | inactive: 126%
86 | COc1ccccc1OP(C)(=O)Nc1ccc(C)cc1 (centres undefined) | inactive: 90.3%
87 | COc1ccc(OP(C)(=O)Nc2cccc(F)c2)cc1 (centres undefined) | inactive: 99.2%
88 | COc1ccccc1OP(C)(=O)Nc1cc(Cl)ccc1C (centres undefined) | inactive: 110%
89 | Cc1cc(C)cc(OP(C)(N)=O)c1 (centres undefined) | inactive: 103%
